Chains of the proteins cited; added tags and fusions are not shown. Lines headed by an entry give the natural chain unless they say otherwise; changes in a name come on top.
UniProt Q06187: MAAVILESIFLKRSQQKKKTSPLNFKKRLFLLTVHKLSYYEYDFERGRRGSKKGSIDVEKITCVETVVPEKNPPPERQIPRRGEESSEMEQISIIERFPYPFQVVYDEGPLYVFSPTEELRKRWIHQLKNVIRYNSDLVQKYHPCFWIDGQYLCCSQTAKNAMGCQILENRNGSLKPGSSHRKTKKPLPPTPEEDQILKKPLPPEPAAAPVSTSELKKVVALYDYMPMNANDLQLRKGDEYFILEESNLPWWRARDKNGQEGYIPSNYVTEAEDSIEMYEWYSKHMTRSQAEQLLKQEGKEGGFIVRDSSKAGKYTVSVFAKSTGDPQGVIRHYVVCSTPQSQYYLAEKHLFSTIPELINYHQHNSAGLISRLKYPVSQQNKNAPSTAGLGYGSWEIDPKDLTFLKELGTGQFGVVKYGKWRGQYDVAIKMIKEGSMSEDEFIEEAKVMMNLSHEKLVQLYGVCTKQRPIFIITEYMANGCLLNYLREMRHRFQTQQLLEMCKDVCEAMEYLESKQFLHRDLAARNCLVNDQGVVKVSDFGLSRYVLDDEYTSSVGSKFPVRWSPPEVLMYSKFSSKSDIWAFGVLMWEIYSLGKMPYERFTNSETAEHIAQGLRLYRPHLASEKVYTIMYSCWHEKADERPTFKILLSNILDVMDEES

One assay has as its target T1, Tyrosine-protein kinase BTK (Homo sapiens, UniProt Q06187). As to the kind of experiment: Inhibition of BTK (unknown origin) assessed as ratio of Kinact/Ki.
Turning to `C=CC(=O)N(C)CCOc1cnccc1-c1ccc(CN2CCN(CC(C)(C)C)CC2=O)c(C)c1`, the Ratio came to 630 M⁻¹ s⁻¹.

The target in a further assay is T1, Tyrosine-protein kinase BTK. In words: Inhibition of BTK (unknown origin) assessed as log ratio of Kinact/Ki.
As for `C=CC(=O)N(C)CCOc1cnccc1-c1ccc(CN2CCN(CC(C)(C)C)CC2=O)c(C)c1`, the log(ratio) worked out at 2.79.

As for `C=CC(=O)N(C)CCOc1cncnc1-c1ccc(CN2CCN(CC(F)(F)F)CC2=O)c(C)c1`, the log(ratio) stood at 2.46.

Regarding `C=CC(=O)N(C)CCOc1cncnc1-c1ccc(CN2CCN(C3CCOC3)CC2=O)c(F)c1` (configuration not stated), the log(ratio) worked out at 1.75.

Regarding `C=CC(=O)N(C)CCOc1cnccc1-c1ccc(CN2CCN(C(C)C)CC2=O)c(C)c1`, the log(ratio) was found to be 2.78.

On to `C=CC(=O)N(C)CCOc1cncnc1-c1ccc(CN2CCN(CC(C)(C)C)CC2=O)c(C)c1`, for which the log(ratio) was found to be 2.22.

Regarding `C=CC(=O)N(C)CCOc1cncnc1-c1ccc(CN2CCN(CC(C)(C)C)CC2=O)cc1`, the log(ratio) was found to be 2.37.

As to `C=CC(=O)N(C)CCOc1cnccc1-c1ccc(CN2CCN(CC)CC2=O)c(C)c1`, the log(ratio) came to 2.48.

Turning to `C=CC(=O)N(C)CCOc1cncnc1-c1ccc(CN2CCN(CC3CCC3)CC2=O)c(C)c1`, the log(ratio) turned out to be 3.07.

Turning to `C=CC(=O)N(C)CCOc1cnccc1-c1ccc(CN2CCN(C)CC2=O)c(C)c1`, the log(ratio) was 1.42.

On to `C=CC(=O)N(C)CCOc1cncnc1-c1ccc(CN2CCN(CC3(C)CC3)CC2=O)c(C)c1`, for which the log(ratio) was 2.26.

Regarding `C=CC(=O)N(C)CCOc1cnccc1-c1ccc(CN2CCN(CCC)CC2=O)c(C)c1`, the log(ratio) worked out at 2.81.

`C=CC(=O)N(C)CCOc1cncnc1-c1ccc(CN2CCN(CC(C)C)CC2=O)c(C)c1`: the log(ratio) turned out to be 3.36.

Consider `C=CC(=O)N(C)CCOc1cnccc1-c1ccc(CN2CCN(CC3CCC3)CC2=O)c(C)c1`, for which the log(ratio) was 3.09.

For `C=CC(=O)N(C)CCOc1cncnc1-c1ccc(CN2CCN(CC(C)(C)C)CC2=O)c(F)c1`, the log(ratio) was found to be 2.79.

With `C=CC(=O)N(C)CCOc1cnccc1-c1ccc(CN2CCN(CC(C)C)CC2=O)c(C)c1`, the log(ratio) came to 3.2.

On to `C=CC(=O)N(C)CCOc1c(-c2ccc(CN3CCN(CC(C)C)CC3=O)c(C)c2)ccnc1N`, for which the log(ratio) was 3.64.
